Laboratory results as given in Sander's compilation of Henry's law constants (doi:10.1021/je3010535).

Experiment: Henry solubility constant Hcp at 298.15 K (mol/(m3 Pa))
Conditions: reference: Hiatt (2013)

Structure (SMILES)	Henry solubility constant Hcp
c1ccc2cccc-2cc1 [azulene]	0.15
CCl [chloromethane]	0.00079
